Assay [1] deals with T1, human H3 receptor (Homo sapiens, UniProt Q9Y5N1).
T1 construct: expressed in transfected cells
As to the kind of experiment: Cyclic AMP accumulation (β-galactosidase reporter, Schild analysis). The format is cell-based. The following applies: histamine agonist, forskolin 5 μM, Schild regression of pEC50 values. The protocol: Sublines of SK-N-MC cells were created that expressed a reporter construct and the human H3 receptor. The reporter gene (β-galactosidase) is under the control of multiple cyclic AMP responsive elements. In 96-well plates, histamine was added directly to the cell media followed 5 min later by an addition of forskolin (5 μM final concentration). When appropriate, antagonists were added 10 min prior to agonist addition. After a 6-h incubation at 37° C., the media was aspirated and the cells washed with 200 μL of phosphate-buffered saline followed by a second aspiration. Cells were lysed with 25 μL 0.1× assay buffer (10 mM Na-phosphate, pH 8, 0.2 mM MgSO4, 0.01 mM MnCl2) and incubated at rt for 10 min. Cells were then incubated for 10 min with 100 μL of 1× assay buffer containing 0.5% Triton and 40 mM β-mercaptoethanol. Color was developed using 25 μL of 1 mg/mL substrate solution (chlorophenolred β-D galactopyranoside; Roche Molecular Biochemicals, Indianapolis, In.).

Sequences of proteins named here, by UniProt entry; tags and fusion partners are left off. A change or cut given only in a name is not applied to a line headed by its entry.
UniProt Q9Y5N1: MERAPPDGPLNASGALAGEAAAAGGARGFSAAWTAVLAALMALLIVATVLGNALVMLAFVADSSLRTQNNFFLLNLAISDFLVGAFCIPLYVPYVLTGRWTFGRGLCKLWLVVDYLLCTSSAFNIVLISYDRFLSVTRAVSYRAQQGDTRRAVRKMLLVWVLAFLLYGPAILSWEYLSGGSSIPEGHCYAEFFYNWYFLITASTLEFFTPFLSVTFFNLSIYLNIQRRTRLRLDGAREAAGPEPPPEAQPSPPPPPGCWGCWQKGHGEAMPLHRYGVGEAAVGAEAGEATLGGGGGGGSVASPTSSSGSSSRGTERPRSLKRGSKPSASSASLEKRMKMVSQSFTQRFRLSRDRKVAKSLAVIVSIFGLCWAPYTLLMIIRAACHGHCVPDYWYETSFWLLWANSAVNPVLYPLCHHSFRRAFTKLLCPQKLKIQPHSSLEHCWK
UniProt P31652, whole entry: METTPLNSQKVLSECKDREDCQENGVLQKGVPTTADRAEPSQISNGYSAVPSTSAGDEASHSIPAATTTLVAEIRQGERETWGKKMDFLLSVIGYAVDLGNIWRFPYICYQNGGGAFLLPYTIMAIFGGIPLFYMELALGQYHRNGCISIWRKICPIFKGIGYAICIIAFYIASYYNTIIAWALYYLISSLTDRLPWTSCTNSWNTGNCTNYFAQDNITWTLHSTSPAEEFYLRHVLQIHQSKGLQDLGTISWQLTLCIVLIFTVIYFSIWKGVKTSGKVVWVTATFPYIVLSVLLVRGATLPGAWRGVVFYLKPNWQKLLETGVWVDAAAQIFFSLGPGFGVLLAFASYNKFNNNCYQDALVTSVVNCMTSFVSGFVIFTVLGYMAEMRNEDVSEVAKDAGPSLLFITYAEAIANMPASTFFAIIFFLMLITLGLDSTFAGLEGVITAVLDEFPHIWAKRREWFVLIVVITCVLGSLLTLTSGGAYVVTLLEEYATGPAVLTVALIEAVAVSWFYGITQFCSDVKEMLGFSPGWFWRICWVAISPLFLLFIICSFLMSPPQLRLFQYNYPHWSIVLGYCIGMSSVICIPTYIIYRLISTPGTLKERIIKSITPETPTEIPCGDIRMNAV

Assay [2] has as its target T1, human H3 receptor. The assay is described as follows: H3 receptor binding (N-[3H]-α-methylhistamine displacement). Conditions: membranes of SK-N-MC cells expressing cloned human H3 receptor, 0.8 nM N-[3H]-α-methylhistamine, 60 min at 25° C. The protocol: Briefly, cell pellets from SK-N-MC cells expressing the human H3 receptor were homogenized in 50 mM Tris-HCl/5 mM EDTA and re-centrifuged at 30,000 g for 30 min. Pellets were re-homogenized in 50 mM Tris/6 mM EDTA (pH 7.4). Membranes were incubated with 0.8 nM N-[^3H]-α-methylhistamine plus/minus test compounds for 60 min at 25° C. and harvested by rapid filtration over GF/C glass fiber filters (pretreated with 0.3% polyethylenimine) followed by four washes with ice-cold buffer. Nonspecific binding was defined in the presence of 10 μM histamine.

Assay [3] deals with T2, Rat SERT (Rattus norvegicus, UniProt P31652).
T2 construct: A rat brain without cerebellum (Zivic Laboratories, Inc.—Pittsburgh, Pa.) was homogenized; tissue Zivic Laboratories, Inc; host or cells: rat brain without cerebellum, membranes
The assay is described as follows: Rat brain SERT binding ([3H]-citalopram displacement). Conditions: rat brain membranes without cerebellum, 0.6 nM [3H]-citalopram, 60 min at 25° C. How it is done: The supernatant was removed and re-centrifuged at 15,000 rpm for 30 min. […] Membranes were incubated with 0.6 nM [^3H]-Citalopram plus/minus test compounds for 60 min at 25° C. and harvested by rapid filtration over GF/C glass fiber filters (pretreated with 0.3% polyethylenimine) followed by four washes with ice-cold buffer.

The mark [4] stands for this setting: SK-N-MC cells expressing human H3 receptor and CRE-β-galactosidase reporter, read-out: pA2 (converted).

Structures are written as SMILES. Like-named read-outs stand apart in the source and are kept apart here.

What is called Ki is the equilibrium dissociation constant of an inhibitor or competing ligand from its target. As for `COc1ccc(C2CN(C)Cc3cc(OCCCN4CCC(F)CC4)ccc32)cc1` (racemic) [Example 1, 7-[3-(4-Fluoro-piperidin-1-yl)-propoxy]-4-(4-methoxy-phenyl)-2-methyl-1,2,3,4-tetrahydro-isoquinoline], the Kb in assay [1] (setting [4]) was 2.51 nM. Also, the affinity in assay [2] corresponds to a Ki of 2 nM.
The compound `COc1ccc(C2CN(C)Cc3cc(OCCCN4CCCC(F)(F)C4)ccc32)cc1` (single isomer, unassigned) [Example 29A, 7-[3-(3,3-Difluoro-piperidin-1-yl)-propoxy]-4-(4-methoxy-phenyl)-2-methyl-1,2,3,4-tetrahydro-isoquinoline] showed an inhibition constant Ki in assay [2] of 35 nM.
For the compound `COc1ccc(C2CN(C)Cc3cc(OCCCN4CCC(F)CC4)ccc32)cc1` (single isomer, unassigned) [Example 1A, 7-[3-(4-Fluoro-piperidin-1-yl)-propoxy]-4-(4-methoxy-phenyl)-2-methyl-1,2,3,4-tetrahydro-isoquinoline], the Kb in assay [1] (setting [4]) was 3.98 nM. Also, in assay [2], the Ki was found to be 2 nM.
For `COc1ccc(C2CN(C)Cc3cc(OCCCN4CCCC(F)(F)C4)ccc32)cc1` (racemic) [Example 29, 7-[3-(3,3-Difluoro-piperidin-1-yl)-propoxy]-4-(4-methoxy-phenyl)-2-methyl-1,2,3,4-tetrahydro-isoquinoline], the Ki in assay [2] was found to be 7 nM.
The compound `COc1ccc(C2CN(C)Cc3cc(OCCCN4CCCCC4)ccc32)cc1` (single isomer, unassigned) [Example 63, 4-(4-Methoxy-phenyl)-2-methyl-7-(3-piperidin-1-yl-propoxy)-1,2,3,4-tetrahydro-isoquinoline] displayed a Ki in assay [3] of 1 nM.
As for `CN1Cc2cc(OCCCN3CCC(F)CC3)ccc2C(c2ccc(S(C)(=O)=O)cc2)C1` (stereo not shown) [Example 51, 7-[3-(4-Fluoro-piperidin-1-yl)-propoxy]-4-(4-methanesulfonyl-phenyl)-2-methyl-1,2,3,4-tetrahydro-isoquinoline], the Kb in assay [1] (pA2, SK-N-MC cells expressing human H3 receptor and CRE-β-galactosidase reporter) was 0.501 nM. Further, affinity in assay [2] was put at a Ki of 2 nM.
For `COc1ccc(C2CN(C)Cc3cc(OCCCN4CCC(F)CC4)ccc32)cc1` (single isomer, unassigned) [Example 1B, 7-[3-(4-Fluoro-piperidin-1-yl)-propoxy]-4-(4-methoxy-phenyl)-2-methyl-1,2,3,4-tetrahydro-isoquinoline], in assay [1] (setting [4]), the Kb is 1.26 nM.
In the case of `COc1ccc(C2CN(C)Cc3cc(OCCCN4CCCC(F)(F)C4)ccc32)cc1` (single isomer, unassigned) [Example 29B, 7-[3-(3,3-Difluoro-piperidin-1-yl)-propoxy]-4-(4-methoxy-phenyl)-2-methyl-1,2,3,4-tetrahydro-isoquinoline], the affinity in assay [2], expressed as Ki, was 13 nM.
The compound `COc1ccc(C2CN(C)Cc3cc(OCCCN4CCCCC4)ccc32)cc1` (single isomer, unassigned) [Example 62, 4-(4-Methoxy-phenyl)-2-methyl-7-(3-piperidin-1-yl-propoxy)-1,2,3,4-tetrahydro-isoquinoline] registered a Ki in assay [3] of 10 nM.
`COc1ccc(C2CN(C)Cc3cc(OCCCN4CCCCC4)ccc32)cc1` (racemic) [Example 61, 4-(4-Methoxy-phenyl)-2-methyl-7-(3-piperidin-1-yl-propoxy)-1,2,3,4-tetrahydro-isoquinoline] returned a Ki in assay [3] of 4 nM.

The values are drawn from patent US20060194837A1, “Tetrahydroisoquinoline compounds” (priority 2004, published 2006).
